The record followed here is patent EP3733170B1, “A SELECTIVE ANDROGEN RECEPTOR MODULATOR (SARM) COMPOUND FOR USE IN THE TREATMENT, PREVENTION, SUPPRESSION, OR INHIBITION OF A SKELETAL-RELATED EVENT (SRE) IN A SUBJECT HAVING BREAST CANCER” (dated 2026).

By UniProt entry, the sequences of proteins in these tests, tags left out.
UniProt Q62986, whole entry: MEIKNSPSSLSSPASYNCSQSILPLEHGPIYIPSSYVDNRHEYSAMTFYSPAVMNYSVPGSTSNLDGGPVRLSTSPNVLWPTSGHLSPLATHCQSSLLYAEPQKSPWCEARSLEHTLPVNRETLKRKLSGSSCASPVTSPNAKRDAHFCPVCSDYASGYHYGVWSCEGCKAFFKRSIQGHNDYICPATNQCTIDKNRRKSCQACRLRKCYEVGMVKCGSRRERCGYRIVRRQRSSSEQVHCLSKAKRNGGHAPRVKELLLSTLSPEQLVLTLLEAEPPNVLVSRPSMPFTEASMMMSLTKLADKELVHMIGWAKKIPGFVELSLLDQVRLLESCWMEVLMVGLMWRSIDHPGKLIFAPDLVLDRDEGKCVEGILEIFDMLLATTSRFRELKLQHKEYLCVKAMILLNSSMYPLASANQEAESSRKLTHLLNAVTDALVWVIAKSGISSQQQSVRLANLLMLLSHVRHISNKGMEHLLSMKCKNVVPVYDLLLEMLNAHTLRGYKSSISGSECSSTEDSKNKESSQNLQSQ
UniProt P06211, whole entry: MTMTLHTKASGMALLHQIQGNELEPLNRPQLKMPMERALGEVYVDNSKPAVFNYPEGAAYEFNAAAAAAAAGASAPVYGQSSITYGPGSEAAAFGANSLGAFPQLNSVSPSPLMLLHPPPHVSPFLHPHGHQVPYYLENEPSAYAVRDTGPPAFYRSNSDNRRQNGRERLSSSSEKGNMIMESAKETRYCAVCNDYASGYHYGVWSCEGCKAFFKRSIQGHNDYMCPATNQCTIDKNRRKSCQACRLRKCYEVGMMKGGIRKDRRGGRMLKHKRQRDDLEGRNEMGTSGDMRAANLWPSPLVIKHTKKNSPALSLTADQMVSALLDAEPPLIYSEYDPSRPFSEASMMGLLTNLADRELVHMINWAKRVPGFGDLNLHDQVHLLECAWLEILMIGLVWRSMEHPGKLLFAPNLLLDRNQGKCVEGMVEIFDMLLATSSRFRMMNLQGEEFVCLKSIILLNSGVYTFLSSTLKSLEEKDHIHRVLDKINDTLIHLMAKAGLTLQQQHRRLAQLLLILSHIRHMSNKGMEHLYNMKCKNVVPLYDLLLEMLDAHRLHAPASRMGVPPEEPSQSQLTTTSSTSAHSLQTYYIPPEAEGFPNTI
UniProt Q63449, whole entry: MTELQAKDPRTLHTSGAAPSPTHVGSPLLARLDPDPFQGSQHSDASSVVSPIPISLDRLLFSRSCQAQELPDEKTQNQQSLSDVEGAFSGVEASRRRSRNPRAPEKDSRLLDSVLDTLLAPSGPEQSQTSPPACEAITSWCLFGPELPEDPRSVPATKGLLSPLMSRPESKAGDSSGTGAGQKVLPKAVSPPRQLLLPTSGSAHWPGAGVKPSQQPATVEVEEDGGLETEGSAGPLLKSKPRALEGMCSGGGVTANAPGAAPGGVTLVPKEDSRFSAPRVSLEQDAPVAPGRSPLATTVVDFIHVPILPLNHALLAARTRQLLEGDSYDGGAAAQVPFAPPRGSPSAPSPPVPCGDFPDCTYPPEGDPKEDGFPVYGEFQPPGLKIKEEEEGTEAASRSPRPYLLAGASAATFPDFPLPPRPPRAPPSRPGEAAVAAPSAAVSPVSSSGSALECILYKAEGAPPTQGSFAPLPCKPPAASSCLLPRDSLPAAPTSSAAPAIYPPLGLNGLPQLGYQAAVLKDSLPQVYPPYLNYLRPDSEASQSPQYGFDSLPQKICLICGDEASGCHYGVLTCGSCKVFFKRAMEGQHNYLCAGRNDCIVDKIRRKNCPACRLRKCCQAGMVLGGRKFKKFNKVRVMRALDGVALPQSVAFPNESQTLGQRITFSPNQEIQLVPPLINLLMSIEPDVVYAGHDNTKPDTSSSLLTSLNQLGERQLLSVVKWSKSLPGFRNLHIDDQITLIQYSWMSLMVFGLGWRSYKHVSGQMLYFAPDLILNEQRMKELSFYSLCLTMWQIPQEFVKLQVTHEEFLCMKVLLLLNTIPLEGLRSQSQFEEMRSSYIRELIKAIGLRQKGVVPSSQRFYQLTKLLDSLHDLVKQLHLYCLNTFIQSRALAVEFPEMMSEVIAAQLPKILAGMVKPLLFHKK
UniProt P22199, whole entry: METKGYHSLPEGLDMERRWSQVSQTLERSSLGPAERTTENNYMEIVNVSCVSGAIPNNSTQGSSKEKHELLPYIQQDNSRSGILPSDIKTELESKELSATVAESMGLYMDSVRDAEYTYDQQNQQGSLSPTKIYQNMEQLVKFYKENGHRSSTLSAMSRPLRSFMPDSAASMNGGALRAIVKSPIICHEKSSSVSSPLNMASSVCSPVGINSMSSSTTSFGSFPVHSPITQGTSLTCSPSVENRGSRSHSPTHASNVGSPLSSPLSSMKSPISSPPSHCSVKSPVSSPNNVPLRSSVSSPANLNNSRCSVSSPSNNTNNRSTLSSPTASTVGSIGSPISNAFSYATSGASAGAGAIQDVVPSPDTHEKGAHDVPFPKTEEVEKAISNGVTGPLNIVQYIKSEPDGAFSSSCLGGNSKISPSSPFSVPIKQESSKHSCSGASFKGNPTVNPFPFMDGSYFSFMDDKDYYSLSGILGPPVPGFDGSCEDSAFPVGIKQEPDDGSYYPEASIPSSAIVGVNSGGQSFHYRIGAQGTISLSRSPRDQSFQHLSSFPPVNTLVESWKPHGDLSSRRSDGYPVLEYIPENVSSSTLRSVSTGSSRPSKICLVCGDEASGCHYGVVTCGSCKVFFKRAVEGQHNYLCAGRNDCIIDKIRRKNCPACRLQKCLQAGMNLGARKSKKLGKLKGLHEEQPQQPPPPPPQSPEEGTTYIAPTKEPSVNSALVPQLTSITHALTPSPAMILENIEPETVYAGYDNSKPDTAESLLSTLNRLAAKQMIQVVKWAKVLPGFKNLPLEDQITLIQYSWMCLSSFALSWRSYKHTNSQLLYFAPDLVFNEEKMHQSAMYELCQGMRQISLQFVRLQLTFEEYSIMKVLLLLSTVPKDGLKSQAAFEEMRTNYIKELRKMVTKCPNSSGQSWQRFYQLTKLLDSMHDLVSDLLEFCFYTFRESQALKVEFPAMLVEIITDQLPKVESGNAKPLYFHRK
UniProt P06536, whole entry: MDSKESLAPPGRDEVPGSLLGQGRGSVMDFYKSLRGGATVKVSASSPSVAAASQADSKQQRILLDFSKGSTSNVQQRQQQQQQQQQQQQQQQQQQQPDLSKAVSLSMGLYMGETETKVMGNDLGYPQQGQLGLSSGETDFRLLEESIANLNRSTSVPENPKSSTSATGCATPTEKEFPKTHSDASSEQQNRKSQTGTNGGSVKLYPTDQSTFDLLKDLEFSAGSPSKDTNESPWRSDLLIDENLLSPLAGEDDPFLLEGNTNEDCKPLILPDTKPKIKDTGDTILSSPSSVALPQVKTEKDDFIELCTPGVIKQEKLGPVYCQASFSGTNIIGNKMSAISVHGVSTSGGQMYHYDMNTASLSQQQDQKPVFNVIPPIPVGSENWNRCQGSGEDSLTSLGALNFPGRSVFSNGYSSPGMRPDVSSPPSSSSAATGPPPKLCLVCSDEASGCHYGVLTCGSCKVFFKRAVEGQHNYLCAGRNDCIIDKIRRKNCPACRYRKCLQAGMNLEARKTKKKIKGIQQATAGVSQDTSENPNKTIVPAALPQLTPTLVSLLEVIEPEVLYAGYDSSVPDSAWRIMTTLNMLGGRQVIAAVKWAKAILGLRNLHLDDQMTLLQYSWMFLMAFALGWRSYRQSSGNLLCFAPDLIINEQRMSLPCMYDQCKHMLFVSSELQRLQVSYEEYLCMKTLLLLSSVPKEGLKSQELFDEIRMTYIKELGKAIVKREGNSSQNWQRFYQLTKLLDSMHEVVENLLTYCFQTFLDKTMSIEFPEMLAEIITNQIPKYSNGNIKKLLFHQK

Series [1] concerns MDA-MB-231-AR triple negative breast cancer cells. In words: Triple negative breast cancer xenograft tumor growth. The following applies: 30 mg/kg orally, 35 days.
Another series has as its system MDA-MB-231 cells. In words: Cell morphology by light microscopy, cells stably transfected with AR. The following applies: 3 days of incubation.
The target in the next series is ER-β (Rattus norvegicus, UniProt Q62986). In words: Nuclear hormone receptor transactivation (luciferase) in HEK-293 cells.
A further series deals with ER-α (Rattus norvegicus, UniProt P06211). The series is described as above.
Another series addresses PR (Rattus norvegicus, UniProt Q63449). Described as above. The following applies: agonist mode.
In another series the target is MR (Rattus norvegicus, UniProt P22199). The description is as above.
Another series concerns the target GR (Rattus norvegicus, UniProt P06536). The series is described as above.
For series [2], the system named is HCC-38 triple negative breast cancer cells. In words: Sulforhodamine B (SRB) cell viability assay in cells infected with AR or LacZ adenovirus. Conditions: AR positive cells; 3 days; charcoal stripped FBS or full serum.
Series [3] concerns MDA-MB-231 triple negative breast cancer cells. The series is described as above. The following applies: AR positive cells, 3 days; for growth inhibitory effects in the presence of bicalutamide: 10 µM bicalutamide; for cell growth inhibition: charcoal stripped FBS or full serum.
[4] abbreviates: highest tested concentration (1 µM).

Structures are written as SMILES.

Consider `C[C@](O)(COc1ccc(C#N)cc1)C(=O)Nc1ccc(C#N)c(Cl)c1`, for which, in [1], the “toxicity or changes in body weight” value is “without any associated toxicity or changes in body weight”. The Uterus weight result in series [1] (data not shown) is “increased”. Besides, in the series on MDA-MB-231 cells, the “altered morphology into a more anchorage-dependent phenotype” value is on record as “altered the morphology into a more anchored phenotype”. At ER-β (co-incubation with estradiol), the “alteration of estradiol-induced ER-β activity (antagonist mode)” value is “failed to alter”. Moreover, the “ER-β activation (agonist mode)” value on ER-β (setting [4]) was “failed to activate”. Further, at ER-α (co-incubation with estradiol), the “alteration of estradiol-induced ER-α activity (antagonist mode)” value is “failed to alter”. For the same compound, the “ER-α activation (agonist mode)” value at ER-α (setting [4]) is listed as “failed to activate”. In addition, on PR, the “PR agonist activity (in words)” value is “moderate potency partial agonist activity”. Besides, the “increase of transactivation of PR” value was 3 fold on PR (1 µM) and 8 fold at PR (10 µM). Moreover, the “MR-mediated transactivation (agonist mode)” value on MR (all the tested concentrations) is given as “failed to activate”. Further, the “alteration of aldosterone-induced MR-mediated transactivation (antagonist mode)” value at MR (co-incubation with aldosterone) is “failed to alter”. Also, the “GR-mediated transactivation (agonist mode)” value at GR (all the tested concentrations) was “failed to activate”. On GR (co-incubation with dexamethasone), the “alteration of dexamethasone-induced GR-mediated transactivation (antagonist mode)” value is on record as “failed to alter”.
For the compound `C[C@]12CCC(=O)C[C@@H]1CC[C@@H]1[C@@H]2CC[C@]2(C)[C@@H](O)CC[C@@H]12`, the “altered morphology into a more anchorage-dependent phenotype” value in the series with MDA-MB-231 cells was “altered the morphology of MDA-MB-231 cells into more anchorage dependent and differentiated cells”. Also, the cell growth inhibition result in series [2] is on record as “inhibited”. In series [3], the “growth inhibitory effects in the presence of bicalutamide” value is recorded as “weakened growth inhibitory effects” and the cell growth inhibition entry is listed as “inhibited”.
For the compound `C[C@@](O)(COc1ccc(C#N)cc1)C(=O)Nc1ccc(C#N)c(C(F)(F)F)c1`, in the series on MDA-MB-231 cells, the “altered morphology into a more anchorage-dependent phenotype” value is given as “not”.
On to `C[C@](O)(COc1ccc(C#N)cc1)C(=O)Nc1ccc(C#N)c(C(F)(F)F)c1`, for which the “altered morphology into a more anchorage-dependent phenotype” value in the series with MDA-MB-231 cells is recorded as “altered the morphology into a more anchored phenotype”. Besides, the cell growth inhibition entry in series [2] is “inhibited”. Moreover, in series [3], the “growth inhibitory effects in the presence of bicalutamide” value was “weakened growth inhibitory effects” and the cell growth inhibition result is recorded as “inhibited”.
